{"source": "patent US10328077B2", "about": "(CELGENE CORPORATION, priority 2016, dated 2019)", "tested_on": "LXFS 573 SCLC patient-derived xenograft", "experiment": "LXFS 573 SCLC PDX, Compound A alone and in combination with etoposide (TGD)", "details": "Etoposide 24 mg/kg/day SC days 1-3 + vehicle; Day 133; N=8", "data": [{"substance": "etoposide", "values": [{"measurement": "SS, number of study survivors", "value": 0}]}]}
